This is a selection; strong and weak results do not stand in their true shares. Calls of active or inactive are those of the source. Rule as the data show it: active = FP signal below about 40; inactive = the rest.

The subject of the assay is RMI core complex (RMI1/RMI2) binding to FANCM MM2 peptide, human. In words: disruptors of RMI1/RMI2 association with MM2 peptide – biochemical, fluorescence polarization, human, primary screen (AID 1159607). Particulars: RMI core complex with F-MM2 peptide, at 33 µM, stronger effect = lower value. For orientation: Fluorescence polarisation rises when a labelled molecule tumbles more slowly, as on binding a larger partner.
On to `CN(CCCl)CCCl`, for which the FP signal (polarization) was inactive: 64.

The values above are taken from PubChem BioAssay AID1159607 (Small Molecule Screening Facility, UW Madison, 2016).
